{
  "source": "PubChem BioAssay AID686",
  "about": "(PCMD, 2007)",
  "note": "The entries are a selection whose mix differs from that of the whole data set. The source made the active and inactive calls.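 How the source made its calls: active means a full or partial loss of lipid-probe fluorescence in the fish gall bladder, intestine or both, judged by eye; inactive means no fluorescence loss, or compound toxic to the fish.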",
  "data": [
    {"assay": "inhibitors of larval lipid processing in zebrafish, primary screen, whole organism, PED6 fluorescence, gall bladder and intestine (AID 686);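 further: larvae 5 to 7 days old with five fish per well; signal comes from phospholipase A2 cleavage of quenched PED6 carried via bile; overnight exposure to compound and PED6 before scoring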", "conditions": "Zebrafish larvae PED6 lipid processing, fluorescence scoring; screened at 20 µM (by protocol)", "method_in_brief": "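Also added: quenched phospholipase substrate PED6, 100 nM final, ingested by larvae; System: zebrafish larvae, 5-7 d; Quantity: 5 larvae per well; Compound: 20 µM single dose; Schedule: overnight compound and PED6 incubation; Read-out: visual per-well fluorescence inhibition score; Measured by: By-eye fluorescence microscopy; Medium: E3.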", "values": [
      {"smiles": "CCN(CC)CC(O)COC(=O)C(O)(c1ccccc1)C1CCCCC1", "note": "(stereo unspecified)", "outcome": "inactive"}
    ]}
  ]
}
